Results from US9416132B2, “Substituted imidazo[1,2-b]pyridazines as protein kinase inhibitors” (Tolero Pharmaceuticals, Inc., priority 2011, dated 2016).

The chains behind the UniProt entries cited, without tags or fusion partners.
UniProt P11309, whole entry: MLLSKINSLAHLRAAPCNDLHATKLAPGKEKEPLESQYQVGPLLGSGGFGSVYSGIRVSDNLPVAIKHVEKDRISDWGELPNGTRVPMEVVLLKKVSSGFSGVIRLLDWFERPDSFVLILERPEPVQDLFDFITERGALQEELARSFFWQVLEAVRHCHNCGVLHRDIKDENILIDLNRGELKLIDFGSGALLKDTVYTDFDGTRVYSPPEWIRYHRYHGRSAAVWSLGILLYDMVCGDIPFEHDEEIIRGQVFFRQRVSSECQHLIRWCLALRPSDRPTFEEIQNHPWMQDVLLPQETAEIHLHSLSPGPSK

Target: PIM-1 (Homo sapiens (Human), UniProt P11309)
Experiment: Pim-1 kinase inhibition assay (Promega Kinase-Glo)
Assay type: biochemical
Details: Table IV, read-out: Compound IC50 on Pim1

## CO[C@H]1CC[C@H](Nc2ccc3ncc(-c4cccc(OC(F)(F)F)c4)n3n2)CC1 [Compound 8-11, 4-(trans-Methoxycyclohexyl)-3-(3-(trifluoromethoxy)phenyl)imidazo[1,2-b]pyridazin-6-amine]
  IC50: 8 nM
